Results: paper PMC12921516, “Optimization of Indole- and Pyrazole-fused Glycyrrhetinic Acid Derivatives as Potent PTP1B Inhibitors: In Silico, In Vitro, In Vivo, and Metabolomic Studies” (ACS Bio & Med Chem Au, 2025)

Target: T1, hPTP1B1–400 (Homo sapiens, UniProt P18031)
T1 construct: h PTP1B 1–400 IC 50 (μM ± S.D); made in house
T1 sequence (P18031 1-400): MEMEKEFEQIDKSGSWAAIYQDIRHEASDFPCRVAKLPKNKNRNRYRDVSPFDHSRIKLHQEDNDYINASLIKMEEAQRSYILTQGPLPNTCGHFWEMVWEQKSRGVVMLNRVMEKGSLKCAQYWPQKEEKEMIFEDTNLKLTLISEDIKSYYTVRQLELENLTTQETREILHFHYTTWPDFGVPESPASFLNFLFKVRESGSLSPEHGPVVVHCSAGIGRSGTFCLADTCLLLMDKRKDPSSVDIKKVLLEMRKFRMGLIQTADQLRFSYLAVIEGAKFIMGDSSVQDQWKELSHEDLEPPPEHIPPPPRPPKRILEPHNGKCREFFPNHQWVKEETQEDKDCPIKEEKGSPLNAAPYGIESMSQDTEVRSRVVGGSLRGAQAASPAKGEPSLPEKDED
Test: PTP1B inhibition, pNPP hydrolysis, long form
Type: biochemical
Details: pNPP substrate, 15 min 37 °C, pH 6.8; ± S.D
Protocol: The inhibitory activity of PTP1B was assessed using the long form of the PTP1B enzyme (hPTP1B1–400). This enzyme comprises a highly conserved N-terminal catalytic domain, known as the PTP domain (PTP1B1–300), in addition to an intrinsically disordered regulatory domain (PTP1B301–400).
The IC50 values obtained from these tests are detailed in Table .
Aliquots of 0–10 μL of the test compounds (triplicate) were taken and incubated for 15 min at 37 °C with 85 μL of Tris buffer solution (50 mM, pH 6.8) containing PTP1B enzyme and 5 μL of p-nitrophenyl phosphate substrate (pNPP, 10 mM). The absorbance of the hydrolysis product, p-nitrophenol (pNP), was measured at 405 nm using a 96-microplate absorbance reader (Accuris SmartReader 96). The inhibitory activity was determined according to eq . %enzyme=(A405b/A405c)×100 1 Where: % enzyme is the percentage of inhibition for PTP1B or TCPTP
The IC50 was calculated using regression analysis, eq : %inhibition=A100/1+(I/IC50)^s 2 Where: A100: Maximum inhibition

CC1(C)[C@@H](O)CC[C@]2(C)[C@H]3C(=O)C=C4[C@@H]5C[C@@](C)(C(=O)O)CC[C@]5(C)CC[C@@]4(C)[C@]3(C)CC[C@@H]12 [GA, Glycyrrhetinic acid]
IC50: 29.05 ± 0.03 µM
